Experimental data reported in US9404916B2, “Use of a protein kinase inhibitor to detect immune cells, such as T cells” (University College Cardiff Consultants Limited, priority 2008, dated 2016).

Test system: PPI15-24-specific autoreactive CTL

Cc1nc(Nc2ncc(C(=O)Nc3c(C)cccc3Cl)s2)cc(N2CCN(CCO)CC2)n1 [dasatinib, N-(2-chloro-6-methyl-phenyl)-2-(6-(4-(2-hydroxyethyl)-piperazin-1-yl)-2-methylpyrimidin-4-ylamino)thiazole-5-carboxamide]
increase in the percentage of autoreactive CTL: seven-fold
direct ex vivo HLA A2/PPI15-24 tetramer staining in healthy control subjects (healthy HLA A2-matched control subjects): did not increase
